Assay results published in patent US20150139996A1, “METHODS AND MEANS FOR THE PRODUCTION OF IG-LIKE MOLECULES” (published 2015).

Columns and labels:
[1] = biological target: IgG1 heavy chain with CH3 construct 62 (T394K) (human) [IgG part: P01857]; test: native MS; transfection ZR: vectors XV+XIX co-expressed
[2] = biological target: IgG1 heavy chain with CH3 construct 66 (V397D) (human) [IgG part: P01857]; test: as above
[3] = biological target: IgG1 heavy chain with CH3 construct 43 (T366K) (human) [IgG part: P01857]; test: SDS-PAGE of protein A-purified supernatant; construct expressed alone
[4] = biological target: IgG1 heavy chain with CH3 construct 69 (L351D, L368E) (human) [IgG part: P01857]; test: native MS; combination 3 co-expressed (A: VH MF1337, B: VH MF1122)
[5] = biological target: IgG1 heavy chain with CH3 construct 17 (S354K, Y349K) (human) [IgG part: P01857]; test: native MS; transfection ZQ: vectors XII+XVIII co-expressed
[6] = biological target: IgG1 heavy chain with CH3 construct 65 (S354D, Y349D) (human) [IgG part: P01857]; test: as above

## IgG1 heavy chain with CH3 construct 62 (T394K) (from UniProt P01857-1)
[1]
  AA found (%): 20%
[2]
  AC found (%): 42%

## IgG1 heavy chain with CH3 construct 43 (T366K) (from UniProt P01857-1)
[3]
  % half molecule: 67.1%
[4]
  % AB found: 87%

## IgG1 heavy chain with CH3 construct 17 (S354K, Y349K) (from UniProt P01857-1)
[5]
  AA found (%): 4%
[6]
  AC found (%): 51%
